Patent US6919350B2 (priority 1996, dated 2005)

Tests used:
Male Sprague Dawley rats [1] = assay: Tail pinch test, alfentanil induced analgesia in rats (Example 13); conditions: for analgesic effect: compound administered alone
Male Sprague Dawley rats [2] = assay: Respiratory depression, transcutaneous pCO2 during alfentanil infusion in rats (Example 13); conditions: for effect on blood pCO2 levels: compound administered alone
rats [3] = assay: Analgesic effects of 3290W93 and fentanyl in rats (Example 14); type: in vivo, rat
rats [4] = tested on: rats
[5] = test compound 60 μg/kg/min with alfentanil 6 μg/kg/min and compound of Example 1 60 μg/kg/min

C=CCN1C[C@@H](C)N([C@H](c2ccc(C(=O)N(CC)CC)cc2)c2cccc(O)c2)C[C@H]1C
effect on tail pinch latency (Male Sprague Dawley rats [1]; alfentanil 6 μg/kg/min with concurrent test compound 60 or 120 μg/kg/min): remained unaffected | analgesic effect (Male Sprague Dawley rats [1]): no analgesic effect | pCO2 level above baseline (Male Sprague Dawley rats [2]; alfentanil 6 μg/kg/min with concurrent infusion of test compound 60 μg/kg/min): 22% | pCO2 level above baseline (Male Sprague Dawley rats [2]; alfentanil 6 μg/kg/min with concurrent infusion of test compound 120 μg/kg/min): 17% | effect on blood pCO2 levels (Male Sprague Dawley rats [2]): no effect on blood pCO2 levels

C=CCN1C[C@@H](C)N([C@@H](c2ccc(C(=O)N(CC)CC)cc2)c2cccc(O)c2)C[C@H]1C
analgesic effect (Male Sprague Dawley rats [1]): no analgesic effect | tail pinch latency (Male Sprague Dawley rats [1]; [5]): 20 s | effect on blood pCO2 levels (Male Sprague Dawley rats [2]): no effect on blood pCO2 levels | pCO2 level above baseline (Male Sprague Dawley rats [2]; [5]): 33%

C=CCN1C[C@H](C)N([C@@H](c2cccc(O)c2)c2cccc(C(=O)N(C)c3cccc(F)c3)c2)C[C@H]1C [listing 1 of 2 here]
analgesia (in words) (rats [3]): high levels of analgesia

C=CCN1C[C@H](C)N([C@@H](c2cccc(O)c2)c2cccc(C(=O)N(C)c3cccc(F)c3)c2)C[C@H]1C [listing 2 of 2 here]
respiratory depression (in words) (rats [4]): did not substantially increase respiratory depression except at high doses | separation between analgesic and respiratory depressant effects compared with fentanyl (rats [4]): five times greater separation | therapeutic ratio (respiratory depression ED50 divided by analgesia ED50) (rats [4]; i.v.): 25
